An excerpt weighted towards active compounds, which were near 13% of everything screened.
Lamin A splicing = changes lamin A minigene splicing in HeLa cells | HeLa LMNA splicing GFP/RFP minigene ratio, 48 h | Potency, µM (highest dose often 46.1 µM), inactives show top-dose ratio change, negative = inhibition, hits mostly inhibitors | 200,000 compounds, 0.01% hits | AID 1487; active = well fitted inhibition curve with a large enough effect in the signal ratio, with a control signal flat, not every such curve was filed as active; inconclusive = small, poorly fitted or top-dose-only effect, or effect the other way, or a change in a side signal; the % refers to the signal ratio; also: potency is read from the fitted curve at half-maximal effect; % is scaled to controls: 0 for no effect and ±100 for the full control effect
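S3 HeLa stable clones carrying a lamin A-EGFP splicing minigene plus DsRed2 were seeded at 600 cells/well in Opti-MEM with 2% FBS, pin-dosed and incubated 48 h at 37°C. Acumen cytometry (488 nm) gave the GFP/RFP total-intensity ratio.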
KDM4E inh = JMJD2E (human) inhibition | JMJD2E catalytic domain, FDH-coupled NADH fluorescence (FDH is formaldehyde dehydrogenase) | Potency, µM (doses to about 57.1 µM), for inactives: at the highest dose activity change, negative = inhibition, most hits filed as inhibitors | 230,000 compounds, 1.6% hits; active = well fitted inhibition curve with a large enough effect, not every such curve was filed as active; inconclusive = small, poorly fitted or top-dose-only effect, or another doubt; inactive = no such curve, though single readings can be large or run the other way;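 also: potency is read from the fitted curve at half-maximal effect; 0% = wells with enzyme and -100% = buffer wells without enzyme; nearly all actives have a fitted effect of over 50% in size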
Sfp PPTase inh = inhibitors of Bacillus subtilis Sfp phosphopantetheinyl transferase | Biochemical Sfp PPTase activity, qHTS | AID 1490 | Potency, µM, for the others: max response, negative = inhibition, hits mostly inhibitors | actives 3.5% (n = 310,000) | Q9F4F7; active = well fitted inhibition curve with a large enough effect; inconclusive = small, poorly fitted or top-dose-only effect, or another doubt; inactive = no such curve, though single readings can be large or run the other way;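 also: the enzyme is Sfp with the accession as filed and its product quenches rhodamine fluorescence; potency is read from the fitted curve at half-maximal effect; 0% = enzyme reaction without inhibitor and -100% = no enzyme wells; top concentration of the series not given in the record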
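Step 1, compound plus 15 nM Sfp-PPTase, 15 min, room temperature. Step 2, add rhodamine-CoA (5 uM) and BHQ-2-YbbR (12.5 uM). Step 3, read 525/598 nm fluorescence at 0 and 30 min.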
G9a inh = inhibitors of human histone lysine methyltransferase G9a. 350,000 compounds, 8.8% hits. G9a H3K9 monomethylation, AlphaScreen, 2 h. Potency, µM (highest dose often 102 µM), for the others: at the highest dose activity, negative = inhibition, actives largely listed as inhibitors. Q96KQ7; also: potency is read from the fitted curve at half-maximal effect; % is scaled to controls: 0 for no effect and ±100 for the full control effect; nearly all actives have a fitted effect of over 75% in size
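Enzyme 20 nM + cpd, 15 min RT; add b-H3K9 pep 500 nM / SAM 20 uM; 2 h RT; anti-H3K9me1 Ab 0.5 ug/mL + SA donor / anti-rabbit acceptor beads 20 ug/mL each, 10 min; AlphaScreen read.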
ALDH1A1 inh = blocks purified human ALDH1A1 activity; P00352; Purified ALDH1A1, NADH fluorescence, propionaldehyde substrate; Potency, µM (doses to about 75.3 µM), for inactives: at the top dose activity, negative = inhibition, usual class: inhibitors; 220,000 compounds, 7.3% hits; AID 1030; active = well fitted inhibition curve with a large enough effect, not every such curve was filed as active; inconclusive = small, poorly fitted or top-dose-only effect, or another doubt; inactive = no such curve, though single readings can be large or run the other way;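 also: potency is read from the fitted curve at half-maximal effect; plate controls were no enzyme wells and a reference inhibitor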
miR-21 reporter = raises the signal of a miR-21 reporter; HeLa miR-21 FLuc reporter, luciferase, 48 h; Potency, µM (top dose mostly 38.3 µM), for inactives: at the highest dose reporter change, positive = more light; AID 2288; 340,000 tested, under 10 active; active = well fitted rising curve with a large enough effect; inconclusive = small, poorly fitted or top-dose-only effect; inactive = no such curve, though single readings can be large or run the other way;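 note: % of control where 0% means no effect; miR-21 action dims this reporter so a rising signal means less miR-21 action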
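Compounds were titrated across several concentrations (up to approximately 40 uM) and incubated 48 hours with HeLa miR-21-FLuc reporter cells (miR-21 target sequence downstream of FLuc, endogenous miR-21). Readout was firefly luciferase luminescence after lytic detection reagent.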
* = called active by the depositor; [ ] = another dose, or the depositor's remark. Unless noted, calls follow the shape of the dose curve; as a rule, active = well fitted curve in the direction sought with a large enough effect; inconclusive = small, poorly fitted or top-dose-only effect, or another doubt; inactive = no such curve, though single readings can be large; an effect the other way counts as inactive or inconclusive.

Results for CC(NC(=O)c1cccc(NC(=O)c2nsc3ccccc23)c1)c1ccccc1 (stereo not drawn) ?
Lamin A splicing: inconclusive; G9a inh: -3.3%[59 µM]; miR-21 reporter: -6.7%

What do the screens show for `COC(=O)c1c(Oc2ccc(Br)cc2)nnc(-c2ccccc2)c1-c1ccccc1`?
G9a inh: 1.1%[59 µM]; miR-21 reporter: inconclusive

How did Fc1ccc(NC(=S)Nc2cc(-c3ccccc3)[nH]n2)cc1Cl do in these assays?
KDM4E inh: -11.2%; Sfp PPTase inh: 6.6%; G9a inh: -44.3%; ALDH1A1 inh: 1.41µM*; miR-21 reporter: 21.1%

What do the screens show for `Cc1ccc(NC(=S)Nc2cc(-c3ccccc3)[nH]n2)cc1Cl`?
KDM4E inh: -4.1%; Sfp PPTase inh: 21.2%; G9a inh: inconclusive; ALDH1A1 inh: inconclusive; miR-21 reporter: -7.3%

How did COc1ccc(N2CCN(C(c3cccs3)C(C)NC(=O)C(=O)N3CCCC3)CC2)cc1 (stereo not drawn) do in these assays?
Sfp PPTase inh: -9.1%; G9a inh: 44.7µM*; miR-21 reporter: 9.0%

Results for CC(NC(=O)C(=O)N1CCCCC1)C(c1cccs1)N1CCN(c2ccccc2)CC1 (stereo not drawn) ?
Sfp PPTase inh: -3.3%; G9a inh: inconclusive; miR-21 reporter: 0.2%

How did COc1ccc(N2CCN(C(c3cccs3)C(C)NS(=O)(=O)c3ccccc3)CC2)cc1 (stereo not drawn) do in these assays?
Lamin A splicing: inconclusive; KDM4E inh: -9.0%; Sfp PPTase inh: 3.5%; G9a inh: inconclusive; ALDH1A1 inh: inconclusive; miR-21 reporter: 21.6%

What do the screens show for `COc1ccc(N2CCN(C(c3cccs3)C(C)NC(=O)C(=O)N3CCCCC3)CC2)cc1` (stereo not drawn)?
Sfp PPTase inh: 3.0%; G9a inh: 50.1µM*; miR-21 reporter: 0.8%

Results for CCS(=O)(=O)NC(C)C(c1cccs1)N1CCN(c2ccc(OC)cc2)CC1 (stereo not drawn) ?
Lamin A splicing: 18.8%[9.22 µM]; KDM4E inh: -16.9%; Sfp PPTase inh: 0.2%; G9a inh: 14.1µM*; ALDH1A1 inh: 12.1%; miR-21 reporter: 16.3%

How did Cc1ccc(C2=NCCn3c2c2ccc(C(F)(F)F)cc2[n+]3[O-])cc1 do in these assays?
G9a inh: -0.2%[2.33 µM]

How did Cc1ccc(S(=O)(=O)/N=C(\c2ccccc2)N(C)S(=O)(=O)c2ccccc2)cc1 do in these assays?
Lamin A splicing: 0.1%; KDM4E inh: inconclusive; Sfp PPTase inh: 9.9%; G9a inh: 10.5%[59 µM]; ALDH1A1 inh: inconclusive; miR-21 reporter: -0.5%

Results for CN(/C(=N\S(=O)(=O)c1ccccc1)C(F)(F)F)c1ccccc1 ?
Lamin A splicing: 1.1%; KDM4E inh: -2.6%; Sfp PPTase inh: 7.1%; ALDH1A1 inh: 28.2µM*; miR-21 reporter: 1.2%

How did O=c1cnc2cnc(Oc3ccccc3)nc2n1CCc1ccccc1 do in these assays?
Sfp PPTase inh: 5.7%; G9a inh: -3.5%[12.7 µM]; ALDH1A1 inh: inconclusive

How did O=C(O)c1ncc(Cl)c(Cl)c1Cl do in these assays?
KDM4E inh: -22.2%; Sfp PPTase inh: 4.4%; G9a inh: 50.1µM*; miR-21 reporter: 5.0%

Results for CCC(=O)c1ccc(OCCn2cncn2)cc1 ?
Lamin A splicing: 11.3%; KDM4E inh: -1.4%; Sfp PPTase inh: 10.4%; G9a inh: 6.8%[12.7 µM]; ALDH1A1 inh: 5.1%; miR-21 reporter: -5.5%

What do the screens show for `CC(=O)c1ccccc1OCCCCN1CCCCC1`?
Sfp PPTase inh: 1.2%; G9a inh: 25.1µM*; miR-21 reporter: 0.2%

How did CCC(=O)c1ccccc1OCCCCn1cncn1 do in these assays?
Sfp PPTase inh: inconclusive; G9a inh: 8.91µM*; miR-21 reporter: -0.8%

What do the screens show for `CCc1ccccc1OCCCCN1CCCC1`?
Lamin A splicing: -14.4%; KDM4E inh: inconclusive; Sfp PPTase inh: 3.1%; G9a inh: 15.8µM*; ALDH1A1 inh: -12.4%; miR-21 reporter: -6.0%

How did COC(=O)c1ccccc1NC(=O)CN1CCCCC1 do in these assays?
Lamin A splicing: 15.8%[46 µM]; KDM4E inh: 0.8%; Sfp PPTase inh: 6.4%; G9a inh: 19.9%[59 µM]; ALDH1A1 inh: -4.0%; miR-21 reporter: -0.6%

Results for COC(=O)c1ccccc1OCCN1CCCCCC1 ?
KDM4E inh: -2.2%; Sfp PPTase inh: inconclusive; G9a inh: 11.2µM*; ALDH1A1 inh: 4.3%; miR-21 reporter: 1.3%

Results for C=CCc1ccccc1OCCCCN1CCCC1 ?
Lamin A splicing: -8.1%; KDM4E inh: inconclusive; Sfp PPTase inh: -7.0%; G9a inh: inconclusive; ALDH1A1 inh: inconclusive; miR-21 reporter: -5.1%

What do the screens show for `Cc1nc2sc(C(=O)N(C)Cc3ccccc3)c(NC(=O)c3ccccc3)c2c(C)c1Cl`?
G9a inh: 6.6%[59 µM]; miR-21 reporter: 0.7%

How did O=C(NCCN1CCCCC1)c1ccc(Cc2nc3ccccc3[nH]2)cc1 do in these assays?
ALDH1A1 inh: 6.3%

How did COc1ccc(C(=O)Nc2ccnn2C2CCN(C(=O)c3cnsn3)CC2)cc1 do in these assays?
Sfp PPTase inh: 21.1%; G9a inh: 34.7%; miR-21 reporter: -8.2%

Structures above with two or more sulfur atoms:
How did COc1ccc(N2CCN(C(c3cccs3)C(C)NS(=O)(=O)c3ccccc3)CC2)cc1 (stereo not drawn) do in these assays?
Lamin A splicing: inconclusive; KDM4E inh: -9.0%; Sfp PPTase inh: 3.5%; G9a inh: inconclusive; ALDH1A1 inh: inconclusive; miR-21 reporter: 21.6%

Results for CCS(=O)(=O)NC(C)C(c1cccs1)N1CCN(c2ccc(OC)cc2)CC1 (stereo not drawn) ?
Lamin A splicing: 18.8%[9.22 µM]; KDM4E inh: -16.9%; Sfp PPTase inh: 0.2%; G9a inh: 14.1µM*; ALDH1A1 inh: 12.1%; miR-21 reporter: 16.3%

How did Cc1ccc(S(=O)(=O)/N=C(\c2ccccc2)N(C)S(=O)(=O)c2ccccc2)cc1 do in these assays?
Lamin A splicing: 0.1%; KDM4E inh: inconclusive; Sfp PPTase inh: 9.9%; G9a inh: 10.5%[59 µM]; ALDH1A1 inh: inconclusive; miR-21 reporter: -0.5%

Further compounds:
Results for C=CCc1ccc(OCCn2cncn2)c(OC)c1 ?
Sfp PPTase inh: 19.6%; G9a inh: -15.7%; miR-21 reporter: -8.3%

How did CCC(=O)c1ccccc1OCCN1CCN(CC)CC1 do in these assays?
Lamin A splicing: 5.5%[46 µM]; KDM4E inh: inconclusive; Sfp PPTase inh: inconclusive; G9a inh: 14.1µM*; ALDH1A1 inh: -13.3%; miR-21 reporter: 2.6%

How did C=CCc1cc(OC)ccc1OCCCCn1cncn1 do in these assays?
Sfp PPTase inh: inconclusive; G9a inh: 28.2µM*; miR-21 reporter: -1.5%

How did CC1CCCN(CCCN2C(=O)C3C(C(=O)Nc4cccc(Cl)c4)C4C=CC3(O4)C2C(=O)NC2CCCCC2)C1 (stereo not drawn) do in these assays?
Sfp PPTase inh: 9.0%; G9a inh: inconclusive; miR-21 reporter: 0.4%

How did CCOC(=O)C1CCCN(C(=O)c2ccc(NC(=O)c3nsc4ccccc34)cc2)C1 (stereo not drawn) do in these assays?
Lamin A splicing: inconclusive; G9a inh: -35.4%[59 µM]; miR-21 reporter: -60.2%

What do the screens show for `CC(=O)N1CCc2c(sc3c2c(=O)n(-c2ccc(F)cc2)c(=O)n3Cc2ccc(C#N)cc2)C1`?
G9a inh: 0.9%[59 µM]; miR-21 reporter: -2.1%

What do the screens show for `Cc1ccc2oc(C(=O)Nc3nnc(CC(C)C)s3)cc(=O)c2c1`?
G9a inh: 5.1%[59 µM]; miR-21 reporter: -2.4%

What do the screens show for `O=c1[nH]c2ccc(NS(=O)(=O)c3ccc(F)cc3)cc2s1`?
Lamin A splicing: -1.5%[46 µM]; G9a inh: 11.6%[59 µM]; miR-21 reporter: -0.8%
